Chains of the proteins cited; added tags and fusions are not shown. Lines headed by an entry give the natural chain unless they say otherwise; changes in a name come on top.
UniProt P41231: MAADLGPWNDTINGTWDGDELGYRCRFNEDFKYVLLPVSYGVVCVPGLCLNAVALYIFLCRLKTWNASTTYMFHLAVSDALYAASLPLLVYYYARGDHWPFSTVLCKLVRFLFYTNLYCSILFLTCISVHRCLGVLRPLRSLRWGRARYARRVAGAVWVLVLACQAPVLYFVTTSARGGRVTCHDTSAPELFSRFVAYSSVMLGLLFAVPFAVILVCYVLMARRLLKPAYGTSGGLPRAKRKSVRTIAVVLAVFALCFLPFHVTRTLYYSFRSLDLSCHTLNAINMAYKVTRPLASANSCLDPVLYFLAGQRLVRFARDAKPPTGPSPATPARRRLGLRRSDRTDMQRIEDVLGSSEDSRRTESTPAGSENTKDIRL

In ChEMBL document CHEMBL1782004, “Pyrimidine nucleotides with 4-alkyloxyimino and terminal tetraphosphate δ-ester modifications as selective agonists of the P2Y(4) receptor” (J Med Chem, 2011):

Target: P2Y purinoceptor 2 (Homo sapiens, UniProt P41231)
Test: Ratio of EC50 for human recombinant P2Y2 receptor expressed in human 1321N1 cells to EC50 for human recombinant P2Y4 receptor expressed in human 1321N1 cells
Format: cell-based

Ratio EC50: 5
SMILES: O=c1ccn([C@@H]2O[C@H](COP(=O)(O)OP(=O)(O)OP(=O)(O)O)[C@@H](O)[C@H]2O)c(=O)[nH]1 [URIDINE TRIPHOSPHATE]
